Yeast mating assay 2: variants of the scFv Ab-91

The measurements come from Engelhart et al. 2022 (doi:10.1038/s41597-022-01779-4) through the FLAb antibody collection.

All variants were tested on one target, the spike HR2 peptide PDVDLGDISGINAS (SARS-CoV-2).

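The starting antibody came from a phage panning campaign against this peptide. AAYL51 was designed without a model: most single CDR substitutions and a random sample of double and triple ones. In AlphaSeq, yeast of one mating type display the scFv and yeast of the other type display the target. Mating (16 h, 30 °C) was followed by selection of diploids and sequencing of their barcodes. A regression on co-assayed BCL2-family reference pairs converts the normalised counts of each replicate to an apparent Kd. There are three technical replicates.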

Each scFv is VL, three GGGGS repeats, VH, as in the parent Ab-91, and differs from it in the CDRs of the heavy chain only.
VL: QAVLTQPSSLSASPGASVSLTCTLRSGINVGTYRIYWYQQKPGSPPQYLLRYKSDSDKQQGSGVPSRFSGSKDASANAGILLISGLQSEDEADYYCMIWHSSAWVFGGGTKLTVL
VH: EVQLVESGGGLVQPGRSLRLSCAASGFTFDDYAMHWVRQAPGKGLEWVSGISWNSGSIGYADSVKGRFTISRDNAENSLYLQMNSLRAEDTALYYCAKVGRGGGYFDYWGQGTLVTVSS

The parent's heavy chain CDRs are GFTFDDYAMH, GISWNSGSIGYADSVK, VGRGGGYFDY; each variant's own CDRs replace them letter for letter. All variants listed here change S52 of the VH, counted from its first residue. The Kd shown is the geometric mean over detected replicates; a lower Kd is a better binder. Where no diploid with the target was found in any replicate, the entry reads "no signal": below detection, most likely a poor binder, though not proof of it. Empty control strains, which show no peptide, gave a signal in 21% of pairings with library AAYL51; the median was 34 µM and 95% of these signals were weaker than 1.8 µM. No background was subtracted. For each scFv, signals with the empty controls are counted beside the result.

CDR-H1,CDR-H2,CDR-H3,Kd,replicates with signal,signal with controls
GFTFDDYAMH,GIHWNSGSIVYADSVK,VGRGGGYGDY,89 µM,2 of 3,4 of 9
GFTFDDYAMH,GITWNSGSIGYADSVK,VAVGGGYFDY,100 µM,2 of 3,5 of 9
EFTFDDYAMH,GIRWNHGSIGYADSVK,VGRGGGYFDY,250 µM,2 of 3,2 of 9
GFTFDDYAMH,GIAWNFSSIGYADSVK,VGRGGGYFDY,26 µM,2 of 3,1 of 9
GFTFDLYAMH,GNGWNSGSIGYADSVK,VGRGGGYFDY,130 µM,1 of 3,3 of 9
GFTFDDYAMH,GIPWNSGSIGDADSVK,VGVGGGYFDY,28 µM,2 of 3,4 of 9
GFTFSDYAMH,GIPWDSGSIGYADSVK,VGRGGGYFDY,25 µM,3 of 3,7 of 9
GFTFDDYAMH,GIVWNSGSIWYADSVK,VGRGGGYFDK,620 µM,1 of 3,4 of 9
GFTFDDYAMH,GIAWNSGSIGYADSVK,VGRGGGYLYY,2.2 µM,1 of 3,1 of 9
GKTFDDYAMH,GIIWNVGSIGYADSVK,VGRGGGYFDY,no signal,0 of 3,0 of 9
GFTFDDYAMH,GIGWQSGSIGYADSVK,VGRGEGYFDY,20 µM,1 of 3,1 of 9
AFAFDDYAMH,GITWNSGSIGYADSVK,VGRGGGYFDY,170 µM,1 of 3,2 of 9
GFTFDDYAMH,GICWNSGSILYADSVK,VPRGGGYFDY,no signal,0 of 3,0 of 9
GFTFDDYAMH,GILWNSGSWGYADSVK,VGRGGGYFFY,no signal,0 of 3,1 of 9
GGTFDDYAMH,GILWNSDSIGYADSVK,VGRGGGYFDY,no signal,0 of 3,6 of 9
GMTFDDYAMH,GITWNSGSIGYADSVK,VGRGGGYFDY,no signal,0 of 3,1 of 9
GFTFDDYALH,GIFWNSGSIGYADSVK,VGRGQGYFDY,no signal,0 of 3,0 of 9
GFTFDDYAMH,GIGWNSGSIFYADSVK,VGRGGGYFDY,no signal,0 of 3,2 of 9
GFTFDDYAFH,GIRWNSGSIGYADSVK,VGYGGGYFDY,no signal,0 of 3,4 of 9
GQTFDDYAMH,GICWNSGSIGYADSVK,MGRGGGYFDY,43 µM,1 of 3,1 of 9
GFTFDGYAMH,GIFWNSGSIHYADSVK,VGRGGGYFDY,590 µM,2 of 3,5 of 9
GFTFDDYAMH,GIEWNSGSIGYADSVK,VGRGGGYLDY,600 µM,1 of 3,4 of 9
GFTFDDYAMH,GIQINSGSIGYADSVM,VGRGGGYFDY,110 µM,1 of 3,2 of 9
GFTFDDYAMH,GICWNSVSIGYADSVK,VGRGGCYFDY,no signal,0 of 3,1 of 9
GFTFDDYAMH,GITWNSGSIGYADSVK,VGRGGGYKCY,no signal,0 of 3,0 of 9
GFTFDDYAMH,GDYWNSTSIGYADSVK,VGRGGGYFDY,86 µM,1 of 3,3 of 9
GFTFDFYAMH,QIAWNSGSIGYADSVK,VGRGGGYFDY,no signal,0 of 3,0 of 9
GFTFDDYAMW,GILWNSASIGYADSVK,VGRGGGYFDY,no signal,0 of 3,5 of 9
GFTFDDYAMH,GIKWTSGSIGYADSVK,VGRGGFYFDY,110 µM,1 of 3,2 of 9
GFTFDDYANH,GIYWNSGSHGYADSVK,VGRGGGYFDY,no signal,0 of 3,2 of 9
GFTFDDHAMH,GICWNSGSIGYADSVK,VGFGGGYFDY,no signal,0 of 3,2 of 9
GFTFDDYAMH,GIGWNSQSVGYADSVK,VGRGGGYFDY,3.3 nM,3 of 3,8 of 9
GFTFDDYAMH,GIPWNSGSIGYQDSVK,VGRGGGAFDY,no signal,0 of 3,1 of 9
GFTFDTYAMH,GIMWNSGSIGYADSVK,VGRYGGYFDY,12 µM,1 of 3,0 of 9
GITFDDYAMH,GIMWNSGSIGYADSVK,VGRGYGYFDY,51 µM,1 of 3,0 of 9
GFTFIDYAMH,GIQWNSGSIGYADSVK,VVRGGGYFDY,360 µM,1 of 3,1 of 9
GFTFDDYAMH,GIKWNDGSIGYADSHK,VGRGGGYFDY,no signal,0 of 3,2 of 9
GFTFDDYAMH,GIWHNSGSIGYADSVK,VGRGGGYFWY,19 µM,2 of 3,3 of 9
GFTFDDYAMH,GCNWNDGSIGYADSVK,VGRGGGYFDY,no signal,0 of 3,0 of 9
GFTSDDYAMH,GIFWNSYSIGYADSVK,VGRGGGYFDY,110 µM,2 of 3,5 of 9
GFTFDDYAMH,GIGWNIGSIGYADSVL,VGRGGGYFDY,no signal,0 of 3,0 of 9
GFTFDDYAMH,GIFWASGSIGYADSVK,VTRGGGYFDY,9.1 µM,1 of 3,2 of 9
GFFFMDYAMH,GITWNSGSIGYADSVK,VGRGGGYFDY,no signal,0 of 3,0 of 9
GFTFDDYAMH,GICWNSGSIGYADSVK,VGYGGGYFDY,3.2 µM,1 of 3,1 of 9
GFTFDDYAMH,GICWNSGSIGYADSVK,DMRGGGYFDY,26 µM,1 of 3,1 of 9
GFTFDDYAMH,GIFHNSGSIGYADSEK,VGRGGGYFDY,23 µM,2 of 3,5 of 9
GFTFDDYDMH,GILYNSGSIGYADSVK,VGRGGGYFDY,no signal,0 of 3,0 of 9
GFTFDDYAMH,GWQWNSGSIGYADSVK,VGRGVGYFDY,no signal,0 of 3,1 of 9
GFTFDDYWVH,GIGWNSGSIGYADSVK,VGRGGGYFDY,95 µM,2 of 3,3 of 9

Top 2 of the variants detected in all replicates, tightest first:

CDR-H1,CDR-H2,CDR-H3,Kd,replicates with signal,signal with controls
GFTFDDYAMH,GIGWNSQSVGYADSVK,VGRGGGYFDY,3.3 nM,3 of 3,8 of 9
GFTFSDYAMH,GIPWDSGSIGYADSVK,VGRGGGYFDY,25 µM,3 of 3,7 of 9